According to paper doi:10.1101/2023.06.05.543739:

Biological target: hRbBP5 (Isoform 2) (human)
Assay: ITC

WDR5 23-334 (from UniProt P61964 23-334) (domain or fragment)
Kd: 620 nM
